Apparent affinities of Ab-14 variants for a coronavirus HR2 peptide

Values reported by Li et al. 2023, doi:10.1038/s41467-023-39022-2 (FLAb copy).

The target is the same throughout: PDVDLGDISGINAS, from the HR2 region of SARS-CoV-2 spike.

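The starting antibody came from a phage panning campaign against this peptide. This is the validation round: designs drawn from the data on random variants, tested in the same kind of assay. Several design methods are mixed in this list. AlphaSeq pools MATa yeast showing the antibodies with MATalpha yeast showing the peptide. Mating (16 h, 30 °C) was followed by selection of diploids and sequencing of their barcodes. A regression on co-assayed BCL2-family reference pairs converts the normalised counts of each replicate to an apparent Kd. There are six technical replicates.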

Ab-14 is the parent antibody, in scFv form: VH, then the linker GGGGSGGGGSGGGGS, then VL. The light chain is unchanged in all variants.
VH: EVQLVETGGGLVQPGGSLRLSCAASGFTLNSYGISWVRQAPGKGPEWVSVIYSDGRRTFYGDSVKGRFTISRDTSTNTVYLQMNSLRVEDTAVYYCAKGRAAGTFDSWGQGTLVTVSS
VL: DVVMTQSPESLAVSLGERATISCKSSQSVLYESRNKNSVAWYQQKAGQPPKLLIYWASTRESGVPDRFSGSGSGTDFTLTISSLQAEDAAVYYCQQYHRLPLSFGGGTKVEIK

Each variant is given by its three heavy chain CDRs, as the data file delimits them; those of the parent are GFTLNSYGIS, VIYSDGRRTFYGDSVK, GRAAGTFDS. This list holds designs with more than six substitutions. Numbers give log10(Kd / nM), so 0 is 1 nM and 3 is 1 µM. Smaller is tighter. Averages over replicates are reported, and they cover detected replicates only. "ND" means that the variant was in the library but no mating with the target was seen in that replicate; the authors take this as a sign of poor binding, and no number exists. Three control strains display no target. For all heavy chain designs, 1% of the pairings with them gave a signal, with a median of 2.08 and one signal in twenty below 0.84, so weak values seen in few replicates may be background. The range of this assay differs from that of the first round, and the authors advise against merging the two. In the paper, a design with two or fewer of six values counts as a poor binder.

For GFDLEEYGIS | VIYADGMRQVYAHSVK | GHYGLGKVG, the assay gave ND, ND, ND, ND, ND, ND. For GFDLNEYGIS | VIYADGRRTFYTDSVK | GAQAGTFDQ, the assay gave -0.54, -0.26, 0.24, -0.57, -0.19, -0.28 (mean -0.27). For GFDLNEYGIS | VIYADGRRTAYADSVK | GNNAGTFDM, the assay gave 0.29, 0.23, 0.09, -0.23, 0.00, 1.39 (mean 0.29). Variant GFQIDEYGIS | VIYADGERASYAADVK | GSVDGVGLT showed ND, ND, ND, ND, ND, ND. With GFDLDEYGIS | VIYADGRRTFYADSVK | GQNAGTFDI the result was -0.25, -0.34, -0.61, -0.73, -0.55, -0.23 (mean -0.45). Variant GFDLGEFGIS | VIYADGMRTAYSDAVK | GTFSGTVDV gave 0.11, 0.42, -0.28, 0.12, -0.02, 0.69 (mean 0.18).

With GFDLDEYGIS | VIYADGMRTFYTDSVK | GEAAGTFDA the result was -0.13, -0.59, -0.50, 0.00, ND, -0.48 (mean -0.34). Variant GFDLDEYGIS | VIYADGVRTAYADSVK | GNTAGTFDV showed -0.68, -0.35, -0.45, -0.59, -1.13, -0.48 (mean -0.61). Variant GFDLNEYGIS | VIYADGRRTQYIDSVK | GETAGTFDK gave -0.64, ND, 0.32, -0.50, -1.09, -0.39 (mean -0.46). For GFDLNEYGIS | VIYADGRRTFYTDSVK | GEEAGIFDV, the assay gave ND, ND, ND, ND, ND, ND. With GFDLNEYGIS | VIYADGMRTFYSDSVK | GTAGGTFDI the result was 0.54, 0.31, 0.24, 0.61, 0.01, 0.21 (mean 0.32). With GFDLNEYGIS | VIYADGRRTFYADSVK | GNQAGTFDQ the result was -0.40, -0.61, -0.64, -0.78, -0.59, -0.49 (mean -0.58).

Variant GFDLNEYGIS | VIYADGVRTAYSDNVK | GEVAGTFDV gave -0.04, -0.20, -0.39, -0.24, -0.08, 0.22 (mean -0.12). Variant GFDLQEYGIS | VIYADGARKSYTNSVK | GVVGGQMDV showed ND, ND, ND, ND, ND, ND. Variant GFDLNEYGIS | VIYADGMRKAYADSVK | GENAGTFDQ showed -0.58, -0.26, -0.46, -0.94, -0.29, -0.12 (mean -0.44). For GFDLDEYGIS | VIYADGSRVFYADTVK | GLLGKLVVV, the assay gave ND, ND, ND, ND, ND, ND. For GFDLDEYGIS | VIYADGMRTAYADSVK | GQVAGTFDT, the assay gave -0.63, -0.39, -0.81, 0.28, -0.64, -0.73 (mean -0.49). Variant GFQLNEYGIS | VIYADGKRSEYQDSVK | GGINSSFSL gave ND, ND, ND, ND, ND, ND.

Variant GFDLNEYGIS | VIYADGMRTAYADSVK | GEVAGTFVV showed -0.12, -0.31, 1.17, 0.23, 0.66, -0.51 (mean 0.19). Variant GFDLDEYGIS | VIYADGRRTAYADNVK | GNQAGTFDV gave -0.33, -0.66, -1.61, -1.61, -1.59, -0.51 (mean -1.05). Variant GFDLDEYGIS | VIYADGKRTAYADSVK | GGNAGTFDV showed -0.62, -0.96, -0.95, -1.20, -1.03, -0.72 (mean -0.91). Variant GFSLDEFGIS | VIYADGMRSAYSHNVK | GQHGGFTVS gave ND, ND, ND, ND, ND, ND. Variant GFDLNEYGIS | VIYADGMRKAYADDVK | GNVAGTFDI showed -0.81, -0.27, -0.42, -0.92, -0.69, -0.58 (mean -0.62). For GFDLNEYGIS | VIYADGMRTAYADDVK | GGNAGTFDQ, the assay gave -0.40, -0.17, -0.43, -0.79, -0.69, 0.15 (mean -0.39).

Variant GFSLDEYGIS | VIYADGNRRVYIDKVK | GNYGGDFIE showed ND, ND, ND, ND, 2.94, ND. For GFDLDEYGIS | VIYADGKRTAYSDSVK | GNNAGTFDM, the assay gave -0.47, -0.78, -0.57, -0.89, -0.62, -0.50 (mean -0.64). Variant GFGIDEYGIS | VIYADGQRKMYQDNVK | GNVGSLGSD showed -0.44, 0.10, 0.28, -0.35, 0.35, 0.76 (mean 0.12). For GFNLNEYGIS | VIYADGRRTFYADSVK | GQIAGTFTV, the assay gave 0.11, -1.30, 0.32, -0.15, ND, -0.04 (mean -0.21). For GFDLNEYGIS | VIYADGRRTAYADSVK | GANAGTFDV, the assay gave -0.59, -0.72, -0.77, -0.86, -0.71, -0.46 (mean -0.68). For GFNLNEYGIS | VIYADGMRNFYADSVK | GLHAGFFDI, the assay gave ND, ND, ND, ND, ND, ND.

For GFDLNEYGIS | VIYADGRRTFYVDSVK | GEIAGTFDQ, the assay gave -0.19, -0.25, -0.36, -0.48, -0.45, -0.46 (mean -0.36). Variant GFDLNEYGIS | VIYADGMRTQYADSVK | GTNAGTFDV gave 0.25, -0.43, -0.78, 0.26, -0.31, 0.23 (mean -0.13). Variant GFDLNEYGIS | VIYADGLRTYYDDSVK | GQLAGTFDQ showed 0.22, 0.44, ND, 1.27, -0.06, 0.23 (mean 0.42). For GFNLNEYGIS | VIYADGMRTFYTDSVK | GEVAGTFDV, the assay gave 0.43, -0.59, 0.01, -0.05, -0.07, 0.30 (mean 0.01). For GFDLNEYGIS | VIYADGQRTFYADSVK | GEAGGTFDV, the assay gave 0.29, 0.38, 0.11, -0.06, -0.14, 0.28 (mean 0.14). Variant GFSLDEYGIS | VIYADGRRTFYQDDVK | GNVAGTFDK gave 0.18, 0.12, -0.31, -0.66, -0.60, -0.47 (mean -0.29).

For GFDLDEYGIS | VIYADGMRTFYADSVK | GNQAGTFDV, the assay gave 0.13, 0.30, 0.06, -0.22, -0.11, 0.26 (mean 0.07). Variant GFDLNEYGIS | VIYADGQRTFYTDSVK | GANAGTFDS gave 0.07, -0.34, -0.59, -0.36, -0.32, -0.22 (mean -0.29). Variant GFDLNEYGIS | VIYADGVRTAYANSVK | GETAGTFDV gave 0.58, 1.04, 0.35, 0.48, 0.34, 0.22 (mean 0.50). For GFDLNEYGIS | VIYADGRRTAYTDSVK | GEAAGTFDV, the assay gave 0.23, 0.38, 0.18, -0.02, 0.03, -0.26 (mean 0.09). Variant GDSLEEYGIS | VIYADGSRTAYQESVK | GLYAGMLDV showed ND, ND, ND, ND, ND, ND. Variant GFDLNEYGIS | VIYADGKRTAYVDSVK | GNQAGTFDV gave -0.96, -1.05, -0.71, -1.21, -0.33, -0.77 (mean -0.84).

Variant GFDIEEYGVS | VIYADGNRSQYSDNVK | GIIGDNVVI gave ND, ND, ND, 2.36, 1.95, 2.40 (mean 2.24).

From the list, the first 5 with no signal in any replicate:

| CDR-H1 | CDR-H2 | CDR-H3 | replicates, log10 nM | log10 Kd (nM), mean |
|---|---|---|---|---|
| GFDLEEYGIS | VIYADGMRQVYAHSVK | GHYGLGKVG | ND, ND, ND, ND, ND, ND | ND |
| GFQIDEYGIS | VIYADGERASYAADVK | GSVDGVGLT | ND, ND, ND, ND, ND, ND | ND |
| GFDLNEYGIS | VIYADGRRTFYTDSVK | GEEAGIFDV | ND, ND, ND, ND, ND, ND | ND |
| GFDLQEYGIS | VIYADGARKSYTNSVK | GVVGGQMDV | ND, ND, ND, ND, ND, ND | ND |
| GFDLDEYGIS | VIYADGSRVFYADTVK | GLLGKLVVV | ND, ND, ND, ND, ND, ND | ND |